Data: paper PMC6033896, “Discovery of Mcl-1 inhibitors from integrated high throughput and virtual screening” (Scientific Reports, 2018)

Protein sequences, listed by entry. Tags and fused reporters are not part of them. Lines headed by an entry give the natural chain unless they say otherwise; changes in a name come on top. Residues count along the entry.
UniProt Q07820, 171-323 limits assumed: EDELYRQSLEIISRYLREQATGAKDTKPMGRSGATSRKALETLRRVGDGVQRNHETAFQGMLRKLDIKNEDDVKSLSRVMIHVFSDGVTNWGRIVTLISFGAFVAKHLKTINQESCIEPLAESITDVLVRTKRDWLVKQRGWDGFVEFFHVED
UniProt Q07820, 171-323 R263A limits assumed: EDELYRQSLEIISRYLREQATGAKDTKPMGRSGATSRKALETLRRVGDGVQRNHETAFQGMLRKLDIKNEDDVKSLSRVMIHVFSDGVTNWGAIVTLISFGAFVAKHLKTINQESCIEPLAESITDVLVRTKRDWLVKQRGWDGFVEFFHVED
UniProt Q16548, 1-151 limits assumed: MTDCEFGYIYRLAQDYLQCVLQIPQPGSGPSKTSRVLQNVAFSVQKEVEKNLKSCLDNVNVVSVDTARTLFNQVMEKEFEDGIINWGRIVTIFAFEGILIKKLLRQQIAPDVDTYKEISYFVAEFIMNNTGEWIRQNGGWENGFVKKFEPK

Columns and labels:
Mcl-1 protein [1] = target: T1, Mcl-1 protein (Homo sapiens, UniProt Q07820); experiment: FP-based competitive binding assay with fluorescent labelled Bid BH3 peptide; conditions: read-out: FP IC50, competition with fluorescent Bid probe 2 nM, 20 nM Mcl-1 for purchased compounds, 10 nM for synthesized library
Mcl-1 protein [2] = target: T1, Mcl-1 protein; experiment: SPR-based solution competitive binding assay, immobilized biotin-labelled Bim BH3 peptide; conditions: read-out: SPR IC50; Mcl-1 20 nM; competition with immobilized Bim BH3 peptide
Bfl-1 = Bfl-1 (Homo sapiens, UniProt Q16548); experiment: FP-based competitive binding assay with FAM-Bid; conditions: for IC50: read-out: Binding to Bfl-1 FP IC50, Bfl-1; for binding to Bfl-1: tested up to 100 µM
Mcl-1/Noxa interaction = conditions: read-out: AID 1417 IC50; Dose Response Confirmation for Mcl-1/Noxa Interaction Inhibitors; ref PubChem BioAssay AID 1417; cited from earlier work
mutant Mcl-1 R263A = mutant Mcl-1 R263A (Homo sapiens, UniProt Q07820, R263A); experiment: BLI-based direct binding assay; conditions: compared with wild-type Mcl-1
Mcl-1/Bid interaction = conditions: read-out: AID 1418 IC50; Dose Response Confirmation for Mcl-1/Bid Interaction Inhibitors; ref PubChem BioAssay AID 1418; cited from earlier work
[3] = test system: Bax/Bak double knockout (DKO) MEFs; experiment: MEF cell death, propidium iodide flow cytometry; conditions: 100 µM of hits (15: 10, 20, 30 µM), 15-hour treatment
wild-type MEFs = experiment: MEF cell death, propidium iodide flow cytometry; conditions: 100 µM of hits (15: 10, 20, 30 µM), 15-hour treatment

Structure (SMILES)	IC50 (Mcl-1 protein [1])	IC50 (Mcl-1 protein [2])	IC50 (Bfl-1)	binding to Bfl-1 (Bfl-1)	IC50 (Mcl-1/Noxa interaction)	binding to Bfl-1 compared with Mcl-1 (Bfl-1; FP)	binding to mutant R263A Mcl-1 (BLI) (mutant Mcl-1 R263A)	IC50 (Mcl-1/Bid interaction)	cell death induction in Bax/Bak DKO MEFs, screening of hits [3]	cell death induction in wild-type MEFs, screening of hits (wild-type MEFs)
O=C(O)c1cccc(Cn2c(Cl)c(C=NNC(=O)c3cc4ccccc4cc3O)sc2=O)c1	9.4 µM	2.8 µM	> 100 µM	didn’t show binding	3.7 µM	–	–	–	–	–
Cc1nn(-c2cccc(Cl)c2)c2nc(-c3ccco3)cc(C(=O)O)c12	–	–	–	–	–	lower binding to Bfl-1 in comparison to Mcl-1	no appreciable binding	–	–	–
O=C(C=Cc1cccs1)Nc1scc(-c2ccccc2)c1C(=O)O	23.7 µM	14.9 µM	–	–	–	–	–	0.5 µM	–	–
CSc1ccc(C=NNc2cccc(C(=O)O)c2)cc1	1.9 µM	1.7 µM	–	–	2.2 µM	–	no appreciable binding	–	–	–
COCCN=c1scc(-c2cccs2)n1NC=C1C=CC(=O)C(O)=C1O	2.7 µM	6.5 µM	> 100 µM	didn’t show binding	5.2 µM	–	–	–	without significant cell death induction	inducing cell death
CC(=O)c1sc2nc(CSc3nnnn3-c3ccccc3)[nH]c(=O)c2c1C	–	10.7 µM	–	–	1.7 µM	–	–	–	–	–
COc1ccc(C(=O)Nc2cccc(C=C(CCC(=O)O)c3nc4ccccc4s3)c2)cc1	39 µM	20 µM	> 100 µM	–	4.3 µM	–	–	–	–	–
CC(C)CCOc1ccc(C=C2CCn3c2nc2cc(C(=O)O)ccc2c3=O)cc1	–	–	–	–	7.2 µM	–	–	–	–	–
